According to US9555029B2, “Methods of colchicine administration” (HIKMA PHARMACEUTICALS, priority 2013, dated 2017):

Key:
[1] = Colchicine pharmacokinetics coadministered with fluconazole; details: with vs without fluconazole
[2] = with vs without clarithromycin; cited from earlier work
[3] = with vs without cyclosporine; cited from earlier work
[4] = not given; remark: listed apart in the source
[5] = with vs without cimetidine
[6] = Colchicine pharmacokinetics coadministered with voriconazole; details: with vs without voriconazole
[7] = Incidence of adverse effects for colchicine coadministered with voriconazole
[8] = with vs without diltiazem ER; cited from earlier work
[9] = with vs without propafenone
[10] = with vs without verapamil ER; cited from earlier work
[11] = with vs without ketoconazole; cited from earlier work
[12] = not given; remark: listed apart in the source
[13] = with vs without ritonavir; cited from earlier work
[14] = cited from earlier work
[15] = with vs without azithromycin; cited from earlier work

COc1cc2c(c(OC)c1OC)-c1ccc(OC)c(=O)cc1[C@@H](NC(C)=O)CC2 [Colchicine, (S)N-(5,6,7,9-tetrahydro-1,2,3,10-tetramethoxy-9-oxobenzo[alpha]heptalen-7-yl)acetamide]
AUCT RATIO of geometric LSmeans Treatment-2/Treatment-1 [1]: 140.82%
AUC∞ RATIO of geometric LSmeans Treatment-2/Treatment-1 [1]: 143.83%
Cmax RATIO of geometric LSmeans Treatment-2/Treatment-1 [1]: 112.95%
Number of subjects withdrawn for safety reasons (propafenone study): None
Relative severity of adverse events (propafenone study): Mild to moderate;; also recorded: None severe
Safety and tolerability (with and without co-administration of propafenone): generally safe and well tolerated
AUCT RATIO Treatment-2/Treatment-1 [2]: 339.21%
Cmax RATIO Treatment-2/Treatment-1 [2]: 297.49%
Kel RATIO Treatment-2/Treatment-1 [2]: 22.35%
T1/2el RATIO Treatment-2/Treatment-1 [2]: 340.97%
AUCT RATIO Treatment-2/Treatment-1 [3]: 317.48%
CLTOT/F RATIO Treatment-2/Treatment-1 [3]: 27.82%
Cmax RATIO Treatment-2/Treatment-1 [3]: 324.17%
Kel RATIO Treatment-2/Treatment-1 [3]: 26.07%
Safety of colchicine when coadministered ([4]; Example 4 (fluconazole study), text prints voriconazole): comparable to observations in the absence of any coadministered drug
Number of subjects withdrawn for safety reasons ([4]; fluconazole study): None
Relative severity of adverse events ([4]; fluconazole study): Mild to moderate;; also recorded: None severe
Safety and tolerability ([4]; with and without co-administration of fluconazole): generally safe and well tolerated
AUCT RATIO of geometric LSmeans Treatment-2/Treatment-1 [5]: 86.80%
AUC∞ RATIO of geometric LSmeans Treatment-2/Treatment-1 [5]: 85.50%
Cmax RATIO of geometric LSmeans Treatment-2/Treatment-1 [5]: 67.45%
AUCT RATIO of geometric LSmeans Treatment-2/Treatment-1 [6]: 108.69%
AUC∞ RATIO of geometric LSmeans Treatment-2/Treatment-1 [6]: 110.77%
Cmax RATIO of geometric LSmeans Treatment-2/Treatment-1 [6]: 79.67%
Number of subjects withdrawn for safety reasons ([7]; voriconazole study): None
Relative severity of adverse events ([7]; voriconazole study): Mild to moderate;; also recorded: None severe
Safety and tolerability ([7]; with and without co-administration of voriconazole): generally safe and well tolerated
AUCT RATIO Treatment-2/Treatment-1 [8]: 176.67%
CLTOT/F RATIO Treatment-2/Treatment-1 [8]: 58.94%
Cmax RATIO Treatment-2/Treatment-1 [8]: 129.03%
Kel RATIO Treatment-2/Treatment-1 [8]: 52.76%
T1/2el RATIO Treatment-2/Treatment-1 [8]: 226.66%
AUCT RATIO of geometric LSmeans Treatment-2/Treatment-1 [9]: 101.04%
AUC∞ RATIO of geometric LSmeans Treatment-2/Treatment-1 [9]: 99.90%
Cmax RATIO of geometric LSmeans Treatment-2/Treatment-1 [9]: 106.28%
AUCT RATIO Treatment-2/Treatment-1 [10]: 199.29%
CLTOT/F RATIO Treatment-2/Treatment-1 [10]: 47.81%
Cmax RATIO Treatment-2/Treatment-1 [10]: 129.72%
Kel RATIO Treatment-2/Treatment-1 [10]: 34.05%
T1/2el RATIO Treatment-2/Treatment-1 [10]: 274.99%
AUCT RATIO Treatment-2/Treatment-1 [11]: 286.75%
CLTOT/F RATIO Treatment-2/Treatment-1 [11]: 30.01%
Cmax RATIO Treatment-2/Treatment-1 [11]: 189.52%
Kel RATIO Treatment-2/Treatment-1 [11]: 22.29%
T1/2el RATIO Treatment-2/Treatment-1 [11]: 415.24%
Number of subjects withdrawn for safety reasons ([12]; cimetidine study): None
Relative severity of adverse events ([12]; cimetidine study): Mild to moderate;; also recorded: None severe
Safety and tolerability ([12]; with and without co-administration of cimetidine): generally safe and well tolerated
AUCT RATIO Treatment-2/Treatment-1 [13]: 345.32%
CLTOT/F RATIO Treatment-2/Treatment-1 [13]: 27.37%
Cmax RATIO Treatment-2/Treatment-1 [13]: 267.08%
T1/2el RATIO Treatment-2/Treatment-1 [13]: 338.42%
Number of subjects withdrawn for safety reasons ([14]; colchicine coadministered with azithromycin, vomiting): 1
Number of subjects withdrawn for safety reasons ([14]; colchicine coadministered with clarithromycin): None
Number of subjects withdrawn for safety reasons ([14]; colchicine coadministered with cyclosporine): None
Number of subjects withdrawn for safety reasons ([14]; colchicine coadministered with diltiazem ER, vomiting): 1
Number of subjects withdrawn for safety reasons ([14]; colchicine coadministered with ketoconazole): None
Number of subjects withdrawn for safety reasons ([14]; colchicine coadministered with ritonavir): None
Number of subjects withdrawn for safety reasons ([14]; colchicine coadministered with verapamil ER): None
AUCT RATIO Treatment-2/Treatment-1 [15]: 143.3%
CLTOT/F RATIO Treatment-2/Treatment-1 [15]: 69.69%
Cmax RATIO Treatment-2/Treatment-1 [15]: 111.15%
Kel RATIO Treatment-2/Treatment-1 [15]: 97.02%
T1/2el RATIO Treatment-2/Treatment-1 [15]: 110.44%

“Also recorded” adds a separate entry of the source. Read-outs that look alike come from different tables or passages of the source.
